Experiment [1] relates to JAK1-dependent STAT6 phosphorylation downstream of IL-13 stimulation in TF-1 human erythroleukemia cells.
The subject of experiment [2] is JAK1-dependent STAT6 phosphorylation downstream of IL-13 stimulation in BEAS-2B human bronchial epithelial cells.
The target of experiment [3] is isolated recombinant JAK2 kinase domain (Homo sapiens (Human), UniProt O60674).
In experiment [4] the target is isolated recombinant JAK1 kinase domain (Homo sapiens (Human), UniProt P23458).

The chains behind the UniProt entries cited, without tags or fusion partners. Residues count along the entry.
UniProt O60674, 849-1124 limits assumed: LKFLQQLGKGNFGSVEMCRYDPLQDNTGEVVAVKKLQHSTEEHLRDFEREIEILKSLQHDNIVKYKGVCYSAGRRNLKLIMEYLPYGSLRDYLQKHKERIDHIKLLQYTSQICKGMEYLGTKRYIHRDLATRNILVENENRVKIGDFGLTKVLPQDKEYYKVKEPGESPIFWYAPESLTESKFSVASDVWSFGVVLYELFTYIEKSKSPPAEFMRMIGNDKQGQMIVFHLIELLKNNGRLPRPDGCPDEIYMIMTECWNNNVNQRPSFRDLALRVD
UniProt P23458, 875-1153 limits assumed: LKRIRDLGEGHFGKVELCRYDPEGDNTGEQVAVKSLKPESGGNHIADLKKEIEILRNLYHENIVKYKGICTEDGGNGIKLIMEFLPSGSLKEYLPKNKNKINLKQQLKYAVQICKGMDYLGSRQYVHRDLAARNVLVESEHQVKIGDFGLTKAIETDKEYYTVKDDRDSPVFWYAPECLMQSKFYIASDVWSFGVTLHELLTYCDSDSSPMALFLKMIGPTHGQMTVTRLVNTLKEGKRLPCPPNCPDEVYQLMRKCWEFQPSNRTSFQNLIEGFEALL

On to `CC1CC(C)CN(CCNC(=O)c2ccc(Nc3nc4c(N5CCC(CO)(c6ccc(Cl)cc6)CC5)cccn4n3)cc2)C1` (stereo not drawn), for which the IC50 in experiment [1] stood at 152 nM; in experiment [2], 259 nM.

For the molecule `O=C(NCC1CCN(CC(F)(F)F)CC1)c1ccc(Nc2nc3c(N4CCC(CO)(c5ccc(Cl)cc5)CC4)cccn3n2)cc1`, the IC50 in experiment [1] was 112 nM; in experiment [2], 533 nM. Further, the Ki in experiment [3] amounted to 0.94 nM; in experiment [4], 0.88 nM.

Take `CCOC(=O)N1CC=C(c2cccn3nc(Nc4ccc(C(=O)N5CCCC6(CNCCO6)C5)cc4)nc23)CC1` (stereo not drawn): in experiment [4], the Ki is 3.05 nM.

In experiment [1], `O=C(NCC1COC2(CCNCC2)C1)c1ccc(Nc2nc3c(C4=CCN(C(=O)CCC(F)(F)F)CC4)cccn3n2)cc1` (stereo not drawn) gave an IC50 of 305 nM. Besides, in experiment [4], the Ki worked out at 0.88 nM.

These data come from US9873709B2 (priority 2013, dated 2018).
